{"sequences": {"note": "Amino acid sequences for entries named in this document (tags omitted). Residues count along the entry.", "UniProt P43220, 24-463": "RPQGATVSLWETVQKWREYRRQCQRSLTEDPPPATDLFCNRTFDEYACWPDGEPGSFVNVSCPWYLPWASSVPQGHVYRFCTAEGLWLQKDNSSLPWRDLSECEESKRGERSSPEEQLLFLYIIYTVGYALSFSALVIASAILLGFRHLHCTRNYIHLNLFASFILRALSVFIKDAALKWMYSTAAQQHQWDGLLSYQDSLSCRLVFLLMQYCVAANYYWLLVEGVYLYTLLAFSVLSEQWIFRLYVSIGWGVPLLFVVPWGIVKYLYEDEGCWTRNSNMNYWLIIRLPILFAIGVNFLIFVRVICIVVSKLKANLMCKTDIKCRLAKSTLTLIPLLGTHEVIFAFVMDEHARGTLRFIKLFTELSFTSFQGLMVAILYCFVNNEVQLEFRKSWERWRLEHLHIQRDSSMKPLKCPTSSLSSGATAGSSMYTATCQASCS"}, "source": "patent US9821070B2", "about": "(OPKO Biologics Ltd., priority 2012, dated 2017)", "key": {"[1]": {"assay": "Plasma concentrations and pharmacokinetics of MOD-6031 and its hydrolyzed products by LC-MS/MS", "type": "in vivo, ob/ob mice"}, "GLP-1 receptor": {"target": "GLP-1 receptor (Homo sapiens, UniProt P43220)", "conditions": "cAMP Hunter CHO-K1 GLP1R cells"}, "[2]": {"conditions": "dose 1000 nmol/kg MOD-6031 (PEG-FMS 1515 nmol/kg)"}, "[3]": {"conditions": "dose 3000 nmol/kg MOD-6031 (PEG-FMS 4545 nmol/kg)"}, "[4]": {"conditions": "dose 6000 nmol/kg MOD-6031 (PEG-FMS 9090 nmol/kg)"}, "[5]": {"conditions": "single SC injection of MOD-6031 3000 nmol/kg, 105 mg/kg (PEG-FMS 4545 nmol/kg)"}, "[6]": {"conditions": "single SC injection of MOD-6031 6000 nmol/kg, 210 mg/kg (PEG-FMS 9090 nmol/kg)"}}}
{"substance": "Oxyntomodulin [OXM]", "values": [{"measurement": "Increased by (Day 33 / Day 2)", "setting": "[1]; MOD-6031 1000 nmol/kg (PEG-FMS 1515)", "value": 1.29}, {"measurement": "Increased by (Day 33 / Day 2)", "setting": "[1]; MOD-6031 3000 nmol/kg (PEG-FMS 4545)", "value": 1.00}, {"measurement": "Increased by (Day 33 / Day 2)", "setting": "[1]; MOD-6031 6000 nmol/kg (PEG-FMS 9090)", "value": 0.97}, {"measurement": "accumulation over the study (Day 33 vs day 2)", "setting": "[1]; MOD-6031 twice a week", "value": "not accumulated"}, {"measurement": "T1/2", "setting": "[1]; Table 8, dose 6000 nmol/kg MOD-6031 (PEG-FMS 9090 nmol/kg)", "value": 11.8, "unit": "h"}, {"measurement": "AUC0-t/D (molar basis)", "setting": "[1]; [2]", "value": "0.716 (hr*nmol/mL)/(μmol/kg)"}, {"measurement": "Cmax/D (molar basis)", "setting": "[1]; [2]", "value": "0.0357 (nmol/mL)/(μmol/kg)"}, {"measurement": "AUC0-t/D (molar basis)", "setting": "[1]; [3]", "value": "0.697 (hr*nmol/mL)/(μmol/kg)"}, {"measurement": "Cmax/D (molar basis)", "setting": "[1]; [3]", "value": "0.0273 (nmol/mL)/(μmol/kg)"}, {"measurement": "AUC0-t/D (molar basis)", "setting": "[1]; [4]", "value": "0.692 (hr*nmol/mL)/(μmol/kg)"}, {"measurement": "Cmax/D (molar basis)", "setting": "[1]; [4]", "value": "0.0280 (nmol/mL)/(μmol/kg)"}, {"measurement": "Cmax/D", "setting": "[1]; single SC injection of MOD-6031 1000 nmol/kg, 34.9 mg/kg (PEG-FMS 1515 nmol/kg)", "value": "0.0357 (μg/mL)/(mg/kg)"}, {"measurement": "AUC0-∞/D", "setting": "[1]; [5]", "value": "0.705 (hr*μg/mL)/(mg/kg)"}, {"measurement": "Cmax/D", "setting": "[1]; [5]", "value": "0.0274 (μg/mL)/(mg/kg)"}, {"measurement": "AUC0-∞/D", "setting": "[1]; [6]", "value": "0.694 (hr*μg/mL)/(mg/kg)"}, {"measurement": "Cmax/D", "setting": "[1]; [6]", "value": "0.0280 (μg/mL)/(mg/kg)"}, {"measurement": "EC50", "setting": "GLP-1 receptor", "value": "1.38 ± 0.68", "unit": "nM"}]}
